The values that follow are results of earlier work, collected in patent US6997270B2, “Compounds and method for generating a highly efficient membrane in water-based drilling fluids” (Halliburton Energy Services, Inc., priority 2000, dated 2006).

For this data set the following is noted: cited from earlier work.

As for silicic acid, the pKa is 9.8.
